The IC50 is the concentration that inhibits the measured activity by half.

Protein sequences, listed by entry. Tags and fused reporters are not part of them. Lines headed by an entry give the natural chain unless they say otherwise; changes in a name come on top.
UniProt Q92633: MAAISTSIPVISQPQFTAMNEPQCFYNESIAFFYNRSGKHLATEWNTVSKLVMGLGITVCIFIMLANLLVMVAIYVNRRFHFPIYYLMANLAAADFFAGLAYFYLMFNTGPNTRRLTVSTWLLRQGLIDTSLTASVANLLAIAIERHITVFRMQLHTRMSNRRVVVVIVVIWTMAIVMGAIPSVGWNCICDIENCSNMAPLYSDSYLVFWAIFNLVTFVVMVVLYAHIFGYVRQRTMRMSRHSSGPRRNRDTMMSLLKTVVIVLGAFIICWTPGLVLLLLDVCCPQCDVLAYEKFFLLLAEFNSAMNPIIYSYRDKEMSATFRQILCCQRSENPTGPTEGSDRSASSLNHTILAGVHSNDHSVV

For three compounds, IC50 results are on record in patent EP4755881A1 (Wuhan Createrna Science and Technology Co., Ltd., priority 2023, dated 2025).

The structures appear in SMILES notation.

Assay [1] concerns the target hLPAR1 (human lysophosphatidic acid receptor 1, Accession No.: NM_001401.4) (Homo sapiens, UniProt Q92633). Nature of the assay: cell-based. Particulars: Table 1; FLIPR method, CHO-K1 cells overexpressing hLPAR1; read-out: LPAR1 inhibitory activity IC50. As for the experimental part: The antagonist properties of the compounds in the present disclosure were determined using the FLIPR (Fluorometric Imaging Plate Reader) method in CHO-K1 cells (Chinese Hamster Ovary cells K1, ATCC) overexpressing hLPAR1 (human lysophosphatidic acid receptor 1, Accession No.: NM_001401.4).
CHO-K1 cells stably expressing hLPAR1 were placed in a cell culture incubator at 37°C with 5% CO2 and cultured in F-12 medium containing 10% FBS (fetal bovine serum, Gibco, 10099-141), 1% penicillin-streptomycin (Gibco, 15140-122), and 0.4 mg/mL Hygromycin B (Gibco, 10687010). 18-24 hours before the FLIPR experiment, the cells were seeded into a 96-well plate at a density of 250,000 cells/mL (25,000 cells/well) and incubated overnight in the cell culture incubator. […] The cell plate was then placed into the FLIPR for baseline fluorescence measurement (excitation wavelength at 485 nm, emission wavelength at 525 to 535 nm). Subsequently, 50 µL/well of agonist (final concentration 1 µM oleoyl-L-α-lysophosphatidic acid sodium salt (Sigma, L7260)) or vehicle (ultrapure water) was added, and fluorescence values were measured at 1-second intervals for 2 min. Finally, the output fluorescence counts were analyzed using GraphPad Prism 9.0 software log(inhibitor) vs. response--Variable slope (four parameters) equation to calculate IC50 values. […]

For assay [2], the target named is T1, LPAR1 receptor (Homo sapiens, UniProt Q92633).
T1 construct: expressed in transfected cells
Nature of the assay: LPAR1 in vitro biological activity evaluation 2: HTRF cAMP kit (LANCE Ultra cAMP Kit) assay in CHO stable transfected cell line expressing the LPAR1 receptor. It is filed as cell-based. Particulars: Table 2, read-out: LPAR1 inhibitory activity IC50. As for the experimental part: The inhibitory effects of the compounds of the present disclosure on the LPAR1 receptor were determined using a Chinese hamster ovary (CHO) stable transfected cell line expressing the LPAR1 receptor, through the HTRF cAMP kit (LANCE® Ultra cAMP Kit).
The CHO cell line expressing the LPAR1 receptor was cultured in F-12 medium (Gibco, 117650054) containing 10% fetal bovine serum (FBS, Avantor, 76294-180) and 0.2 mg/mL hygromycin B (Solarbio, H8080-1g) at 37°C with 5% CO2. Cell passage, recovery, and cryopreservation were performed according to conventional methods. The stable transfected cell line was cultured to 80% confluence, digested with trypsin to collect cells, counted, and then seeded at 5 µL/well in a 384-well plate (500 cells/5 µL). The 1× Stimulation Buffer was prepared according to the instructions of the kit (LANCE® Ultra cAMP Kit). 1 µL of the test compound solution (diluted to 10× with 1× Stimulation Buffer) was added to the corresponding experimental wells, followed by centrifugation and incubation at 37°C for 10 minutes. […] After the incubation was completed, the readings at 665 nm and 620 nm under 330 nm excitation were detected using the HTS high-throughput drug screening multifunctional microplate reader (BMG, PHERAstar FSX). The IC50 values were calculated by fitting nonlinear regression (dose response - variable slope) using GraphPad Prism software. […]
In general terms: Time-resolved FRET reads energy transfer from a long-lived donor to a nearby acceptor.

For `CCCCN(C)C(=O)OCc1c(-c2ccc(C#CC3(CC(=O)O)CC3)c(C(F)(F)F)n2)nnn1C` [compound 102], the IC50 in assay [1] was determined as 34.5 nM.
Consider `CCC(F)(F)[C@@H](C)OC(=O)Nc1c(-c2ccc(C#CC3(CC(=O)O)CC4(CC4)C3)c(F)n2)nnn1C` [compound 501], for which the concentration for half-maximal inhibition (IC50) in assay [2] is 14.7 nM.
Still for that read-out and setting: in the case of `CCC(F)(F)[C@@H](C)OC(=O)Nc1c(-c2ccc(C#CC3(CC(=O)O)CC(OC)C3)c(C)n2)nnn1C` (stereo partly drawn) [compound 279] it was 39 nM.
